# Experimental data reported in patent publication US8440666B2, “Pyridazinone compounds and P2X7 receptor inhibitors” (Nissan Chemical Industries, Ltd., priority 2007, dated 2013).
# Chains of the proteins cited; added tags and fusions are not shown.
# UniProt Q99572, whole entry: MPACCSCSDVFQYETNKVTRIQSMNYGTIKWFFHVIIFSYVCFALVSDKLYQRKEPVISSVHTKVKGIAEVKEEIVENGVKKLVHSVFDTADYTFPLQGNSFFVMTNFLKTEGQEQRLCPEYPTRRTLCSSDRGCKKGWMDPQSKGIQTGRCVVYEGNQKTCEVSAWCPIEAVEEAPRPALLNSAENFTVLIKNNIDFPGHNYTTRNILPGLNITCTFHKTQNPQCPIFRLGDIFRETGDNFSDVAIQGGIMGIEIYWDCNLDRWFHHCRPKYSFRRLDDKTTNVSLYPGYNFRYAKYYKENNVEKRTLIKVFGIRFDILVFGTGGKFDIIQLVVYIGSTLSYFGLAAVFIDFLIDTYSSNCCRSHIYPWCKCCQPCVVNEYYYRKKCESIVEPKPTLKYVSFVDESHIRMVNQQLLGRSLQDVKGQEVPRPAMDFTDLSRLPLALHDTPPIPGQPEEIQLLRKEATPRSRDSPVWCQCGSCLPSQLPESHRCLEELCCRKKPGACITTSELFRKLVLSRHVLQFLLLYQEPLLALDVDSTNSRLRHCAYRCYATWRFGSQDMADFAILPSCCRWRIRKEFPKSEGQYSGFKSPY
# Biological target: Human P2X7 (hP2X7) receptor (Homo sapiens, UniProt Q99572)
# Assay: Dye assay: BzATP-induced Yo-Pro-1 uptake in HEK293 cells stably expressing hP2X7
# Settings: BzATP (0.1 mM)-induced Yo-Pro-1 uptake, compounds 30 min pre-treatment, 90 min incubation
# Description: Human P2X7 (hP2×7) was cloned from a normal human brain total RNA library by reverse transcription (using SuperScript II (Invitrogen)) and PCR (using KOD-plus-(TOYOBO)). PCR primers were designed according to hP2X7 sequence registered in GENBANK with a putative amino acid sequence consisting of 595 amino acid residues. The PCR fragments were inserted into pcDNA3.1/myc-HisA vector (Invitrogen) and sequenced for confirmation.
# HEK293 cells were transfected with hP2×7/pcDNA3.1/myc-HisA by lipofection, and 1 day later, the cells were treated with 1 mg/mL G418, and resistant cells were selected by appropriately dilution. The resistant cells were cloned by reseeding at a low density.
# P2X7 receptor antagonists were screened by a dye uptake assay using HEK293 cells stably expressing hP2×7. Cells were plated on a type I collagen-coated black/clear bottom 96-well plate at 20000 cells/well and a day later, treated with varying concentrations of various test compounds for 30 minutes, then treated with a dye (Yo-Pro-1) (final concentration 2 μM) and BzATP (final concentration 0.1 mM) and incubated for 90 minutes. Then, the fluorescence (indicating the BzATP-induced Yo-Pro-1 uptake mediated by the P2X7 receptor) was measured with a microplate reader (excitation wavelength: 485 nm, emission wavelength: 535 nm). The % inhibition rates were calculated and plotted against the logarithms of the concentrations to determine IC50.
row,IC50,SMILES
1,27 nM,C[C@@H]1[C@H]2C[C@@H](C[C@H]1Nc1cnn(CC(=O)Nc3ccc(Cl)c(-n4ccnc4)c3)c(=O)c1Cl)C2(C)C
2,190 nM,C[C@@H]1[C@H]2C[C@@H](C[C@H]1Nc1cnn(CC(=O)Nc3ccc(Cl)nc3)c(=O)c1Cl)C2(C)C
3,98 nM,CC1C(Nc2cnn(CC(=O)NCC3CCN(C(=O)OC(C)(C)C)C3)c(=O)c2Br)CC2CC1C2(C)C (stereo not shown)
4,55 nM,C[C@@H]1[C@H]2C[C@@H](C[C@H]1Nc1cnn(CC(=O)Nc3ccc(N4CCOCC4)nc3)c(=O)c1Cl)C2(C)C
